Paper PMC5355811 (Nature Communications, 2017)

Columns and labels:
[1] = tested on: Ba/F3 cells of EGFR-T790M/del19; experiment: Drug sensitivity screening at 100 nM, Ba/F3 EGFR-T790M/del19; type: cell-based; conditions: 0.1 µM
Protocol: (§1) After the incubation, cell viability was measured using CellTiter-Glo assay. The relative cell viability was calculated as a ratio of each value to that of the DMSO control.

[2] = tested on: Ba/F3 cells of EGFR-del19; experiment: Drug sensitivity screening at 100 nM, Ba/F3 EGFR-del19; type: cell-based; conditions: 0.1 µM
Protocol: as §1

| SMILES | Relative cell viability (% of DMSO control) [1] | Relative cell viability (% of DMSO control) in del19 Ba/F3 cells [2] |
| --- | --- | --- |
| C[C@]12O[C@H](C[C@]1(O)CO)n1c3ccccc3c3c4c(c5c6ccccc6n2c5c31)CNC4=O [CEP701] | 8.811 and 6.835 and 8.335 | – |
| CS(=O)(=O)CCNCc1ccc(-c2ccc3ncnc(Nc4ccc(OCc5cccc(F)c5)c(Cl)c4)c3c2)o1 [Lapatinib, lapatinib] | – | 138.183 and 130.036 and 116.359 |

Where “and” joins values, the source holds several entries; their conditions need not be identical. Identical values can stand only once.
